## scFv variants of Ab-91 (heavy chain) against a SARS-CoV-2 spike peptide

Target peptide (SARS-CoV-2 spike, HR2 region): PDVDLGDISGINAS

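In library AAYL51, one, two or three CDR residues were substituted; doubles and triples were drawn at random. AlphaSeq pools MATa yeast showing the antibodies with MATalpha yeast showing the peptide. After mating in shaken culture at 30 °C for 16 h, diploids were selected and their barcode pairs sequenced. Each replicate has its own calibration line, from reference interactions of the BCL2 family. There are three technical replicates.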

The variants keep the light chain, the linker and the frameworks of Ab-91 (scFv order VL, a 15-residue (Gly4Ser)3 linker, VH).
VL: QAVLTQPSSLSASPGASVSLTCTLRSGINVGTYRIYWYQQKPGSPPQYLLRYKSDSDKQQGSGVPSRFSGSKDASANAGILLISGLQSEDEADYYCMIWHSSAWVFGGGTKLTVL
VH: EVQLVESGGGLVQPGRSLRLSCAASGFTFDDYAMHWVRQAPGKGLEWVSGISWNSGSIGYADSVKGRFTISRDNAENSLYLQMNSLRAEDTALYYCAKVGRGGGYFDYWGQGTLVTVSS

Each variant is given by its three heavy chain CDRs, as the data file delimits them; those of the parent are GFTFDDYAMH, GISWNSGSIGYADSVK, VGRGGGYFDY.
The read-out is the apparent dissociation constant on a log10 scale (nM): the lower, the stronger.
Where no diploid with the target was found in that replicate, the entry reads "nd": below detection, most likely a poor binder, though not proof of it.

| # | CDR-H1 | CDR-H2 | CDR-H3 | log10 Kd (nM) by replicate | signal with controls |
|---|---|---|---|---|---|
| 1 | GFTFDDYAMH | GISWNSGQIGRADSVK | VGRGGGYFDY | nd / nd / nd | 1/9 (2.75) |
| 2 | GFTFDDYAMH | GISWDSGSIGYEDSVK | VGKGGGYFDY | nd / 5.65 / nd | 1/9 (3.94) |
| 3 | GFTFQDYAMH | GISWNSGSIGYADRVY | VGRGGGYFDY | 1.05 / 1.15 / 0.21 | 4/9 (4.50) |
| 4 | GFTFDDYFMH | GISWNSGSIGYADSVK | VGRGGGYFDG | 4.32 / 4.29 / nd | 3/9 (5.12) |
| 5 | GFTFDDYAMH | GYSWNNGSIGYAVSVK | VGRGGGYFDY | 5.19 / nd / nd | 3/9 (5.19) |
| 6 | GFTFVDYAMC | GISWNSGSIGYADFVK | VGRGGGYFDY | 2.25 / 2.37 / 2.36 | 2/9 (4.18) |
| 7 | GFTFDDYAMH | GISWNSGSIGTADSVP | VGRGGGSFDY | 3.72 / nd / nd | 3/9 (4.75) |
| 8 | GFTFDDYAMH | GISWNSGSIGYTDSVC | VGRGGGYDDY | 5.22 / 6.21 / 5.73 | 7/9 (5.01) |
| 9 | GFTFDDPAML | GISLNSGSIGYADSVK | VGRGGGYFDY | 5.71 / 5.27 / nd | 1/9 (3.42) |
| 10 | LFYFDDYAMH | GISWNSGSIGYADSVK | VGEGGGYFDY | nd / nd / nd | 1/9 (3.79) |
| 11 | GFTFDDIAMH | DISWNSGSIKYADSVK | VGRGGGYFDY | 5.23 / 5.03 / nd | 2/9 (5.51) |
| 12 | GFTTDHYAMH | GISHNSGSIGYADSVK | VGRGGGYFDY | 2.58 / 1.52 / 1.59 | 0/9 |
| 13 | GFTFDDYAMH | GISCNMGSIGYADSVK | SGRGGGYFDY | nd / nd / nd | 0/9 |
| 14 | GHTFDDRAMH | TISWNSGSIGYADSVK | VGRGGGYFDY | nd / nd / nd | 1/9 (4.37) |
| 15 | GFTFDDYDMH | GILYNSGSIGYADSVK | VGRGGGYFDY | nd / nd / nd | 0/9 |
| 16 | GYTFDMYAMH | GISWNSGSIGYADSVK | LGRGGGYFDY | nd / nd / nd | 2/9 (5.00) |
| 17 | GFTFDDYAMH | GISWQSGSIGLADWVK | VGRGGGYFDY | nd / nd / nd | 0/9 |
| 18 | GFTFDDYQMH | GISWNSGSIGYLDSVK | VGRGGGYFDW | 3.20 / nd / nd | 2/9 (3.74) |
| 19 | GFTFDDYAMH | GISWNSHSIGYANSVK | HGRGGGYFDY | nd / nd / 4.49 | 4/9 (4.97) |
| 20 | GFPFDDYAMH | PSSWNSGSIGYADSVK | VGRGGGYFDY | nd / nd / nd | 2/9 (4.50) |
| 21 | GFTFDMYAWH | EISWNSGSIGYADSVK | VGRGGGYFDY | nd / nd / nd | 0/9 |
| 22 | GFTFRTYAMH | RISWNSGSIGYADSVK | VGRGGGYFDY | 5.15 / nd / nd | 1/9 (4.43) |
| 23 | GFTFDHYAMH | GISWNSGSIGYADSCK | HGRGGGYFDY | nd / nd / nd | 0/9 |
| 24 | VFTFDDYAMH | GIQWNSGSIGNADSVK | VGRGGGYFDY | nd / 5.05 / nd | 1/9 (2.88) |
| 25 | GFTFDDYACV | GISWNSGSIGYAASVK | VGRGGGYFDY | nd / nd / nd | 5/9 (4.20) |
| 26 | GPTFDDYAMH | GISWNSGSAGYADSPK | VGRGGGYFDY | 5.11 / nd / nd | 2/9 (5.20) |
| 27 | GQTFDDYAMH | GISWNDGSIGYADSVK | VGRGCGYFDY | nd / nd / nd | 1/9 (4.79) |
| 28 | GFTFDDIAMH | GISWNSDSIGYADRVK | VGRGGGYFDY | nd / nd / nd | 0/9 |
| 29 | GFTFDDYAMH | GISWNSESGFYADSVK | VGRGGGYFDY | nd / nd / 5.15 | 3/9 (5.21) |
| 30 | GNTFADYAMY | GISWNSGSIGYADSVK | VGRGGGYFDY | 4.40 / 3.98 / nd | 2/9 (5.23) |
| 31 | GFTFDDYAMH | GIAWNDGSIGYADSVK | VGRGGFYFDY | 2.65 / 3.03 / 3.05 | 1/9 (5.94) |
| 32 | GFTFDDYASM | GISWNSGSIGYADSVF | VGRGGGYFDY | nd / nd / 4.16 | 3/9 (3.93) |
| 33 | GFTFDDYAPH | GISWNSGSIGYADRVK | VGRGGGYFDK | nd / nd / nd | 0/9 |
| 34 | LFTFDDYAMH | GISWNSGSIGAADSVK | VGRGGGYFDL | nd / nd / nd | 0/9 |
| 35 | GFTLDDYAMH | GISWNSGSIWYADSVK | VGRGGGYTDY | nd / 4.78 / nd | 2/9 (4.91) |

The 5 strongest on average among those seen in every replicate, once more:

| CDR-H1 | CDR-H2 | CDR-H3 | log10 Kd (nM) by replicate | signal with controls |
|---|---|---|---|---|
| GFTFQDYAMH | GISWNSGSIGYADRVY | VGRGGGYFDY | 1.05 / 1.15 / 0.21 | 4/9 (4.50) |
| GFTTDHYAMH | GISHNSGSIGYADSVK | VGRGGGYFDY | 2.58 / 1.52 / 1.59 | 0/9 |
| GFTFVDYAMC | GISWNSGSIGYADFVK | VGRGGGYFDY | 2.25 / 2.37 / 2.36 | 2/9 (4.18) |
| GFTFDDYAMH | GIAWNDGSIGYADSVK | VGRGGFYFDY | 2.65 / 3.03 / 3.05 | 1/9 (5.94) |
| GFTFDDYAMH | GISWNSGSIGYTDSVC | VGRGGGYDDY | 5.22 / 6.21 / 5.73 | 7/9 (5.01) |

As a blank, each scFv also met three strains without target: over library AAYL51, 21% of these pairings were detected, typically at 4.54 and seldom below 3.26. The control count says in how many pairings with the empty strains this scFv gave a signal, with their mean in brackets.
Parent in this assay: reference entry 1.86, copy in this library 0.88.

Reference: Engelhart et al. 2022, doi:10.1038/s41597-022-01779-4. File: FLAb, binding data.